Laboratory results taken from patent publication EP4629995B1, “COMBINATION THERAPY WITH AN ANALOG OF BLEBBISTATIN FOR THE TREATMENT OF CANCER” (dated 2026).

Sequences of proteins named here, by UniProt entry; tags and fusion partners are left off.
UniProt P08183, whole entry: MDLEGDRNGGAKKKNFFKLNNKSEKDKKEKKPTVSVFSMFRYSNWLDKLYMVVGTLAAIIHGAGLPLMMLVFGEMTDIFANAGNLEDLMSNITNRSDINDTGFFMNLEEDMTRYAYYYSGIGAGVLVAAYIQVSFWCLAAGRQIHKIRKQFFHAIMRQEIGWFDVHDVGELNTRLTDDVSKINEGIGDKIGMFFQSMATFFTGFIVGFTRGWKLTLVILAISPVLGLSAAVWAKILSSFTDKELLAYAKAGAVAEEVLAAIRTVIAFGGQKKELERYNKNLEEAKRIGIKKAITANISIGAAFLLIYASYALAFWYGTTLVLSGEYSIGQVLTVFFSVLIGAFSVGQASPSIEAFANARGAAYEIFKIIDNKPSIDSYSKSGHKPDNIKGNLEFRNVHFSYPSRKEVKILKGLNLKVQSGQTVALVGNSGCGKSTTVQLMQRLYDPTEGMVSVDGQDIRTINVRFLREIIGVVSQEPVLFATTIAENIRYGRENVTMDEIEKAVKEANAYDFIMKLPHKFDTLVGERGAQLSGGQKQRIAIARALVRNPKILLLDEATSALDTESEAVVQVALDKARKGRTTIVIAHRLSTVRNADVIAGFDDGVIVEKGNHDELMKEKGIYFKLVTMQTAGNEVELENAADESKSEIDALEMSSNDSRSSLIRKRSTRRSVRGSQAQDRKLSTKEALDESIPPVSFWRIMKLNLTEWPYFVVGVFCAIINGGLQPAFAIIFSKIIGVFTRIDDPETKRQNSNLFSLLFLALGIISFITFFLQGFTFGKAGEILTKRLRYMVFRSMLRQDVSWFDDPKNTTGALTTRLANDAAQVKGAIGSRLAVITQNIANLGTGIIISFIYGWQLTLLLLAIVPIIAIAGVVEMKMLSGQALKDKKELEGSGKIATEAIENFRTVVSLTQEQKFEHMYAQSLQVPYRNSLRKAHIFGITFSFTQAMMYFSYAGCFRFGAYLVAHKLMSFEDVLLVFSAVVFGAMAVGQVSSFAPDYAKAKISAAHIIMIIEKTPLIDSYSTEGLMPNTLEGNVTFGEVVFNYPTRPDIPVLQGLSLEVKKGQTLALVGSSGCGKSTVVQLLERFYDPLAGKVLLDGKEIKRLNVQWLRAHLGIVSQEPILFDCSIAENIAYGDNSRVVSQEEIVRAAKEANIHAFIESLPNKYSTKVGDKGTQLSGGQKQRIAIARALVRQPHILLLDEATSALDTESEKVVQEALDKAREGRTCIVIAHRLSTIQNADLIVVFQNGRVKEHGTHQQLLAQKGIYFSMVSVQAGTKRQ

Experiments:
[1] = system: T47D; assay: Cell viability and Combination Index
[2] = system: MCF-7; assay: Cell viability and Combination Index
[3] = system: PANC-1; assay: Cell viability (Cell Titer-Glo) and Combination Index; details: PANC-1, 5 days
[4] = system: MIA PaCa-2; assay: as above; details: MIA PaCa-2, 5 days
[5] = system: MDA-MB-468; assay: as above; details: MDA-MB-468, 5 days
[6] = system: cardiac myosin II (CMII); details: cited from earlier work
[7] = doses as low as 0.5 mg/kg (IV); cited from earlier work
[8] = In vivo brain/plasma ratio; details: mice, 10mg/kg
[9] = Tolerability in vivo; details: mouse
[10] = system: Trp53-deleted genetically engineered model (GEMM) of GBM; assay: Kaplan Meier survival in Trp53-deleted GEMM of GBM
[11] = system: healthy cells in culture; assay: Toxicity to healthy cells in culture; details: non-toxic up to
[12] = system: Murine proneural and mesenchymal GBM cell lines; assay: Dose response, cell viability of murine GBM lines; details: 72 h
[13] = system: NMIIA and IIB; details: cited from earlier work
[14] = system: human patient-derived xenograft (PDX) model; assay: Survival in human PDX model of GBM; details: Compound 1 5 mg/kg SC with radiation 2 Gy/dose x 5 daily doses, human PDX (FIG. 6A)
[15] = target: P-glycoprotein (Pgp) (Homo sapiens, UniProt P08183); assay: In vitro DMPK: P-glycoprotein substrate
[16] = system: skeletal (SkMII) and smooth (SmMII) muscle myosin; assay: Skeletal and smooth muscle myosin inhibition
[17] = In vitro DMPK: cell permeability and protein binding
[18] = system: Trp53-deleted (Trp53(-/-)) murine GBM cells; assay: Cell viability (CellTiter-Glo) dose response with kinase inhibitors and MuSyC synergy
[19] = system: primary human GBM lines; assay: Dose response, cell viability of primary human GBM lines; details: 72 h, all tested cell lines (murine and human)
[20] = read-out: drug (µM) at Fa=0.5 in combination, in combination with Compound 1
[21] = read-out: Compound 1 (µM) at Fa=0.5 in combination, in combination with Everolimus
[22] = read-out: EC50 of compound 1, alone

EC50 ([1]; read-out: EC50 of drug, 2 days, alone): 15.5 µM
EC50 ([1]; read-out: drug (µM) at Fa=0.5 in combination, 2 days, in combination with Compound 1): 0.06 µM
EC50 ([2]; read-out: EC50 of drug, MCF-7, 2 days, alone): 0.6 µM
EC50 ([2]; read-out: drug (µM) at Fa=0.5 in combination, MCF-7, 2 days, in combination with Compound 1): 0.01 µM
EC50 ([3]; read-out: EC50 of drug, alone): 103 µM
EC50 [3, 20]: 10.2 µM
EC50 ([4]; read-out: EC50 of drug, alone): 6.4 µM
EC50 [4, 20]: 0.02 µM
EC50 ([5]; read-out: EC50 of drug, alone): 10 µM
EC50 [5, 20]: 0.05 µM
SMILES: CO[C@H]1C[C@@H]2CC[C@@H](C)[C@@](O)(O2)C(=O)C(=O)N2CCCC[C@H]2C(=O)O[C@H]([C@H](C)C[C@@H]2CC[C@@H](OCCO)[C@H](OC)C2)CC(=O)[C@H](C)/C=C(\C)[C@@H](O)[C@@H](OC)C(=O)[C@H](C)C[C@H](C)/C=C/C=C/C=C/1C

in vivo brain/plasma ratios [8]: 0.9
SMILES: Cc1ccc2c(c1)C(=O)C1(O)CCN(c3ccccc3)C1=N2 (stereo not drawn)
inhibition of cardiac myosin II (CMII) [6]: potent inhibition
tolerability [7]: poorly tolerated

EC50 ([1]; read-out: EC50 of drug, 3 days, alone): 14.2 µM
EC50 ([2]; read-out: EC50 of drug, MCF-7, 3 days, alone): 197 µM
EC50 ([4]; read-out: EC50 of drug, alone): 7 µM
EC50 [4, 20]: 4.41 µM
SMILES: O=C(c1cc(Cc2n[nH]c(=O)c3ccccc23)ccc1F)N1CCN(C(=O)C2CC2)CC1

SMILES: Cc1ccc2c(c1)C(=O)[C@]1(O)CCN(c3ccc4nc(C)ccc4c3)C1=N2
tolerability [9]: well-tolerated
EC50 ([1]; read-out: Compound 1 (µM) at Fa=0.5 in combination, 2 days, in combination with Everolimus): 5 µM
EC50 ([1]; read-out: Compound 1 (µM) at Fa=0.5 in combination, 3 days, in combination with Olaparib): 5 µM
EC50 ([1]; read-out: Compound 1 (µM) at Fa=0.5 in combination, 5 days, in combination with Tamoxifen): 5 µM
EC50 ([1]; read-out: EC50 of compound 1, 2 days, alone): 7.5 µM
EC50 ([1]; read-out: EC50 of compound 1, 3 days, alone): 7.5 µM
EC50 ([1]; read-out: EC50 of compound 1, 5 days, alone): 6.5 µM
EC50 ([2]; read-out: Compound 1 (µM) at Fa=0.5 in combination, MCF-7, 2 days, in combination with Everolimus): 5 µM
EC50 ([2]; read-out: Compound 1 (µM) at Fa=0.5 in combination, MCF-7, 3 days, in combination with Olaparib): 5 µM
EC50 ([2]; read-out: Compound 1 (µM) at Fa=0.5 in combination, MCF-7, 5 days, in combination with Tamoxifen): 5 µM
EC50 ([2]; read-out: EC50 of compound 1, MCF-7, 2 days, alone): 9.4 µM
EC50 ([2]; read-out: EC50 of compound 1, MCF-7, 3 days, alone): 9.4 µM
EC50 ([2]; read-out: EC50 of compound 1, MCF-7, 5 days, alone): 15.3 µM
mouse survival ([10]; Compound 1 5 mg/kg SC with radiation 2 Gy/dose x 5 daily doses, p53-deleted GEMM (FIG. 6B)): prolonged mouse survival to a degree greater than the sum of each treatment
increase in median survival over vehicle ([10]; single agent (Compound 1 10 mg/kg IP, sunitinib 40 mg/kg oral gavage), from day 5 post-retroviral injection): 32%
concentration non-toxic to healthy cells in culture [11]: > 30 µM
in vivo brain/plasma ratios [8]: 2.3
EC50 [12]: 4 to 6 µM
potency against both NMIIA and IIB [13]: equal potency
selectivity profile for NMII over CMII [13]: strong selectivity profile
EC50 [3, 21]: 16.7 µM
EC50 [3, 22]: 25.1 µM
EC50 [4, 21]: 5 µM
EC50 ([4]; read-out: Compound 1 (µM) at Fa=0.5 in combination, in combination with Olaparib): 0.94 µM
EC50 [4, 22]: 6 µM
EC50 [5, 21]: 5 µM
EC50 [5, 22]: 10.2 µM
mouse survival [14]: prolonged mouse survival to a degree greater than the sum of each treatment
P-glycoprotein (Pgp) substrate [15]: not a P-glycoprotein (Pgp) substrate
skeletal (SkMII) and smooth (SmMII) muscle myosin inhibition [16]: some skeletal (SkMII) and smooth (SmMII) muscle myosin inhibition
protein binding [17]: protein bound
shift of the EC50 for saracatinib to the left ([18]; 5 µM Compound 1 with a range of saracatinib concentrations): > 1000 fold
shift of the EC50 for sunitinib to the left ([18]; 5 µM Compound 1 with a range of sunitinib concentrations): ~ 20 fold
EC50 [19]: low micromolar range

Where two headings read alike, the source gives them in different places. Each block holds one compound with its values, some of them ahead of it.
